Read-outs that look alike come from different tables or passages of the source.
Tested on: CDC1551(ΔdosR) mutant
Format: cell-based
Conditions: for log2 Fold change: DosR mutant
[1] = gene MT2504 Rv2429 ahpD, HC101A vs DMSO
[2] = gene MT3118 Rv3033, HC101A vs DMSO

For `C[C@@H]1CC[C@H]2[C@@H](C)C(=O)O[C@@H]3O[C@]4(C)CC[C@@H]1[C@]32OO4` [HC101A, artemisinin, reference compound], the “DosR DMSO/DosR HC101A Fold change” value (gene MT1854 Rv1804c, HC101A vs DMSO) was 0.4661, the “DosR DMSO/DosR HC101A Fold change” value (gene MT1893 Rv1845c, HC101A vs DMSO) was 2.084 and the “DosR DMSO/DosR HC101A Fold change” value (gene MT1922 Rv1873, HC101A vs DMSO) was 0.4023. For the same compound, the “DosR DMSO/DosR HC101A Fold change” value (gene MT1969 Rv1918c PPE, HC101A vs DMSO) was 0.497, the “DosR DMSO/DosR HC101A Fold change” value (gene MT2040 Rv1986, HC101A vs DMSO) was 0.1916 and the “DosR DMSO/DosR HC101A Fold change” value (gene MT2126 Rv2066 cobl, HC101A vs DMSO) was 2.068. For the same compound, the “DosR DMSO/DosR HC101A Fold change” value (gene MT2166 Rv2107 PE, HC101A vs DMSO) was 0.2681, the “DosR DMSO/DosR HC101A Fold change” value (gene MT2167 Rv2108 PPE, HC101A vs DMSO) was 0.3139 and the “DosR DMSO/DosR HC101A Fold change” value (gene MT2168, HC101A vs DMSO) was 0.3901. For the same compound, the “DosR DMSO/DosR HC101A Fold change” value (gene MT2264 Rv2208 cobS, HC101A vs DMSO) was 2.402, the “DosR DMSO/DosR HC101A Fold change” value (gene MT2278 Rv2220 glnA1, HC101A vs DMSO) was 0.4388 and the “DosR DMSO/DosR HC101A Fold change” value (gene MT2284 Rv2225 panB, HC101A vs DMSO) was 0.4983. The “DosR DMSO/DosR HC101A Fold change” value (gene MT2304 Rv2244 acpM, HC101A vs DMSO) was 0.3649, the “DosR DMSO/DosR HC101A Fold change” value (gene MT2305 Rv2245 kasA, HC101A vs DMSO) was 0.4366 and the “DosR DMSO/DosR HC101A Fold change” value (gene MT2306, HC101A vs DMSO) was 0.4941. For the same compound, the “DosR DMSO/DosR HC101A Fold change” value (gene MT2391 Rv2329c narK1, HC101A vs DMSO) was 0.4803, the “DosR DMSO/DosR HC101A Fold change” value (gene MT2417, HC101A vs DMSO) was 0.4621 and the “DosR DMSO/DosR HC101A Fold change” value (gene MT2503 Rv2428 ahpC, HC101A vs DMSO) was 0.4435. For the same compound, the “DosR DMSO/DosR HC101A Fold change” value [1] was 0.4503, the “log2 Fold change” value [1] was −1.151 and the “DosR DMSO/DosR HC101A Fold change” value (gene MT2506, HC101A vs DMSO) was 0.4797. The “DosR DMSO/DosR HC101A Fold change” value (gene MT2526 Rv2450c, HC101A vs DMSO) was 0.4891, the “DosR DMSO/DosR HC101A Fold change” value (gene MT2615 Rv2540c aroF, HC101A vs DMSO) was 2.642 and the “DosR DMSO/DosR HC101A Fold change” value (gene MT2631, HC101A vs DMSO) was 2.089. The “DosR DMSO/DosR HC101A Fold change” value (gene MT2698 Rv2623, HC101A vs DMSO) was 0.4756, the “DosR DMSO/DosR HC101A Fold change” value (gene MT2778 Rv2705c, HC101A vs DMSO) was 0.4964 and the “DosR DMSO/DosR HC101A Fold change” value (gene MT2849 Rv2779c, HC101A vs DMSO) was 0.3146. For the same compound, the “DosR DMSO/DosR HC101A Fold change” value (gene MT2850 Rv2780 ald, HC101A vs DMSO) was 0.2752, the “DosR DMSO/DosR HC101A Fold change” value (gene MT2863 Rv2794c, HC101A vs DMSO) was 2.029 and the “DosR DMSO/DosR HC101A Fold change” value (gene MT3065 Rv2987c leuD, HC101A vs DMSO) was 0.4683. For the same compound, the “DosR DMSO/DosR HC101A Fold change” value (gene MT3110 Rv3026c, HC101A vs DMSO) was 3.057, the “DosR DMSO/DosR HC101A Fold change” value [2] was 0.4507 and the “log2 Fold change” value [2] was −1.15. For the same compound, the “DosR DMSO/DosR HC101A Fold change” value (gene MT3132, HC101A vs DMSO) was 0.2656, the “DosR DMSO/DosR HC101A Fold change” value (gene MT3133 Rv3048c nrdG, HC101A vs DMSO) was 0.2486 and the “DosR DMSO/DosR HC101A Fold change” value (gene MT3134 Rv3049c, HC101A vs DMSO) was 0.2205. The “DosR DMSO/DosR HC101A Fold change” value (gene MT3178 Rv3094c, HC101A vs DMSO) was 0.4007, the “DosR DMSO/DosR HC101A Fold change” value (gene MT3293 Rv3199c, HC101A vs DMSO) was 2.055 and the “DosR DMSO/DosR HC101A Fold change” value (gene MT3327 Rv3230c, HC101A vs DMSO) was 2.211. For the same compound, the “DosR DMSO/DosR HC101A Fold change” value (gene MT3441 Rv3338, HC101A vs DMSO) was 0.3206, the “DosR DMSO/DosR HC101A Fold change” value (gene MT3481 Rv3371, HC101A vs DMSO) was 0.4661 and the “DosR DMSO/DosR HC101A Fold change” value (gene MT3492 Rv3384c, HC101A vs DMSO) was 2.073. For the same compound, the “DosR DMSO/DosR HC101A Fold change” value (gene MT3498 Rv3391 acrA1, HC101A vs DMSO) was 0.4878, the “DosR DMSO/DosR HC101A Fold change” value (gene MT3539 Rv3433c, HC101A vs DMSO) was 2.35 and the “DosR DMSO/DosR HC101A Fold change” value (gene MT3581 Rv3477 PE, HC101A vs DMSO) was 0.3397. The “DosR DMSO/DosR HC101A Fold change” value (gene MT3591 Rv3487c lipF, HC101A vs DMSO) was 0.406, the “DosR DMSO/DosR HC101A Fold change” value (gene MT3696 Rv3590c PE_PGRS, HC101A vs DMSO) was 2.529 and the “DosR DMSO/DosR HC101A Fold change” value (gene MT3947 Rv3839, HC101A vs DMSO) was 0.4526. The “DosR DMSO/DosR HC101A Fold change” value (gene MT3963 Rv3848, HC101A vs DMSO) was 0.4943, the “DosR DMSO/DosR HC101A Fold change” value (gene MT3969 Rv3854c, HC101A vs DMSO) was 0.2468 and the “DosR DMSO/DosR HC101A Fold change” value (gene MT3970 Rv3855, HC101A vs DMSO) was 0.3536. For the same compound, the “DosR DMSO/DosR HC101A Fold change” value (gene MT3976 Rv3862c, HC101A vs DMSO) was 0.3824, the “DosR DMSO/DosR HC101A Fold change” value (gene MT3978 Rv3864, HC101A vs DMSO) was 0.3995 and the “DosR DMSO/DosR HC101A Fold change” value (gene MT3988 Rv3874, HC101A vs DMSO) was 0.4777. The “DosR DMSO/DosR HC101A Fold change” value (gene MT3989 Rv3875 esat6, HC101A vs DMSO) was 0.4854.
